Patent publication US20260382582A1, “G-PROTEIN COUPLED RECEPTOR ANTAGONIST” (published 2026)
Where two headings read alike, the source gives them in different places.

Amino acid sequences for entries named in this document (tags omitted).
UniProt Q96LA9, whole entry: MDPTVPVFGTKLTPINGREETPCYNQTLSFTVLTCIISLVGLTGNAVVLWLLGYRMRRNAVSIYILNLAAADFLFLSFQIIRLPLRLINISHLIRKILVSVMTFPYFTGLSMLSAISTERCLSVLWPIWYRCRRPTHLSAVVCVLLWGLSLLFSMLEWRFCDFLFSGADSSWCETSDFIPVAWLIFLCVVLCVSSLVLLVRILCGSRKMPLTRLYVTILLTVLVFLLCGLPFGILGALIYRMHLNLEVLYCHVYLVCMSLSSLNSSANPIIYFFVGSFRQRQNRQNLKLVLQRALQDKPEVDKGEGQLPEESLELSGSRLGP
UniProt P10635, whole entry: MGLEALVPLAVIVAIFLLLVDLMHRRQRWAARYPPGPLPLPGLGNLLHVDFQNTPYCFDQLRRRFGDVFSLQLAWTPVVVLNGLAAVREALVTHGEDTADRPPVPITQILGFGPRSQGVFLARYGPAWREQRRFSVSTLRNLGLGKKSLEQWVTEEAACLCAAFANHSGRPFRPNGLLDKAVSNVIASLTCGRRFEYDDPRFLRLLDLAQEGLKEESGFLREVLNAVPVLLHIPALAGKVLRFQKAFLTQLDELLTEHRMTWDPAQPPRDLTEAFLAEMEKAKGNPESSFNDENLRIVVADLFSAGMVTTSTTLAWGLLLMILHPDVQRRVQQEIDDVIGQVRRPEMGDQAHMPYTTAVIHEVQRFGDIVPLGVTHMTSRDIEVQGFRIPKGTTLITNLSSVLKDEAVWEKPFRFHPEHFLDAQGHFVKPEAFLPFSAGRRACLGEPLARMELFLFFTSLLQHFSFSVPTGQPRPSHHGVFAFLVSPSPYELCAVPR
UniProt P05177, whole entry: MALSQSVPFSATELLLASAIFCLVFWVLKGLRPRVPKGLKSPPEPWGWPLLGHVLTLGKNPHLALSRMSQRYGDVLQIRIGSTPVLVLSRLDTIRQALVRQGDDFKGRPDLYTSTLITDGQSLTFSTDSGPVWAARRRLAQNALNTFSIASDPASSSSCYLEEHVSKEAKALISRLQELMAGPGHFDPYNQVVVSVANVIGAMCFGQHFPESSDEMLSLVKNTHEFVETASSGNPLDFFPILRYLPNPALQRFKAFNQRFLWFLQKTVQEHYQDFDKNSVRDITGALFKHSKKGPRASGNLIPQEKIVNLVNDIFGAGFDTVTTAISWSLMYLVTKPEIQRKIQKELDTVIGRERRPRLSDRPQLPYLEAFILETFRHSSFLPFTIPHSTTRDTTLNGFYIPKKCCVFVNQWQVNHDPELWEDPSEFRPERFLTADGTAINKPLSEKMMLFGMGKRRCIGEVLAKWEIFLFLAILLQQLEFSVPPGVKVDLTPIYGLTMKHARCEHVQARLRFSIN
UniProt P33261, whole entry: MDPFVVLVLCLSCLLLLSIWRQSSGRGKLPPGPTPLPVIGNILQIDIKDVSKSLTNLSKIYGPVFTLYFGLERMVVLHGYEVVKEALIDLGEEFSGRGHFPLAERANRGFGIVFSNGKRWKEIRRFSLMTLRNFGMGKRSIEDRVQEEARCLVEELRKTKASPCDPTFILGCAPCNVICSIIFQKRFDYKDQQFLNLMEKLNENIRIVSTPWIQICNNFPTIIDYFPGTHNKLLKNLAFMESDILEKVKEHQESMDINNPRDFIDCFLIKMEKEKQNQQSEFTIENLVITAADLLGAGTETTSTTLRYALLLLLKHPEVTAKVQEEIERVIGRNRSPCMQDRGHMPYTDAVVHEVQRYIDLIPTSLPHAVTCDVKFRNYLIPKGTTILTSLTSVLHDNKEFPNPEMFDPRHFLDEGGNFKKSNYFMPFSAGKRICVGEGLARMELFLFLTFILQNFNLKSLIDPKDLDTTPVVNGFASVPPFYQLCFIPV
UniProt P11712, whole entry: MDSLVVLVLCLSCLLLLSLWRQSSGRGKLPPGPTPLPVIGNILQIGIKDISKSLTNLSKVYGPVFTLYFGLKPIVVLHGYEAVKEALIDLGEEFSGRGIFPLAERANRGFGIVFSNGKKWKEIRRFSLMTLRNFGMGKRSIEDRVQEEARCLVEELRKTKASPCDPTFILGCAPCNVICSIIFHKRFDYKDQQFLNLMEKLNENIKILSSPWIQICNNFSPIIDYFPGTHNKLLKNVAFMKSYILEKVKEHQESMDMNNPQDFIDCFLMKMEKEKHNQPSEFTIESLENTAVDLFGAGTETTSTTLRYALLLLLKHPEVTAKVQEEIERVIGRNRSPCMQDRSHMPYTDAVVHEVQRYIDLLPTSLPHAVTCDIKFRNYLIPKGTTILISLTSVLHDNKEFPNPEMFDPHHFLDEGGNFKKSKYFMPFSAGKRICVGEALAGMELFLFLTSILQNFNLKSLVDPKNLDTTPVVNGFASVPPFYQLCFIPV
UniProt P08684, whole entry: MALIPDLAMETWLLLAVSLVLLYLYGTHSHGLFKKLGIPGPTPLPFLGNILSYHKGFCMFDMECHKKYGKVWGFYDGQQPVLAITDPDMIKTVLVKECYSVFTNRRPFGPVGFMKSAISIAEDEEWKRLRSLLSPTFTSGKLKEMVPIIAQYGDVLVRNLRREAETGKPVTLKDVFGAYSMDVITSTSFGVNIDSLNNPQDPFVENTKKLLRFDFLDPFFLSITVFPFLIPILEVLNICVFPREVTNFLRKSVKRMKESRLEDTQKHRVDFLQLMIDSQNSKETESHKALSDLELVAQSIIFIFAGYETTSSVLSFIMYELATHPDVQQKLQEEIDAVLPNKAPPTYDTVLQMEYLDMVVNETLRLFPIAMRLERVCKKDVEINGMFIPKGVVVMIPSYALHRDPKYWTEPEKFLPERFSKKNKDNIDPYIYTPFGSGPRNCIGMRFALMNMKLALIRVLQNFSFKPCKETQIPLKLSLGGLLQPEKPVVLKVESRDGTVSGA
UniProt Q96LB1, whole entry: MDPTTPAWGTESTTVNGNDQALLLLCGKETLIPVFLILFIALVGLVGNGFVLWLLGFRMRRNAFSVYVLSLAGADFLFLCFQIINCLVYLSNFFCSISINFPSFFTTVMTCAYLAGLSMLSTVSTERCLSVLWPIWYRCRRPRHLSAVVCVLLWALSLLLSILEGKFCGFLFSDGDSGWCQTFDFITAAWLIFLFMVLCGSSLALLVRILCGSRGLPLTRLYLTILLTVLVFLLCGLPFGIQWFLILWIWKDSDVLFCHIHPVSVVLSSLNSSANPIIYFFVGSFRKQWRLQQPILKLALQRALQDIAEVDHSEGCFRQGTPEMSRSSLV

Assays:
[1] = Plasma protein binding (PPB), H
[2] = Pharmacokinetic study in mice, oral and intravenous (Table 6)
MRGPRX4 = MRGPRX4 (Homo sapiens, UniProt Q96LA9); assay: MRGPRX4 activity assay, antagonism versus deoxycholic acid (DCA), IP-One Gq HTRF
[3] = Pharmacokinetic study in rat, oral and intravenous (Table 6)
MDCK permeability = conditions: for MDCK ER: efflux ratio (ER)
CYP2D6 = CYP2D6 (Homo sapiens, UniProt P10635); assay: CYP inhibition; conditions: read-out: CYP 2D6 IC50
CYP1A2 = CYP1A2 (Homo sapiens, UniProt P05177); assay: CYP inhibition; conditions: read-out: CYP 1A2 IC50
CYP2C19 = CYP2C19 (Homo sapiens, UniProt P33261); assay: CYP inhibition; conditions: read-out: CYP 2C19 IC50
CYP2C9 = CYP2C9 (Homo sapiens, UniProt P11712); assay: CYP inhibition; conditions: read-out: CYP 2C9 IC50
CYP3A4 = CYP3A4 (Homo sapiens, UniProt P08684); assay: CYP inhibition; conditions: read-out: CYP 3A4 IC50
MRGPRX2 = MRGPRX2 (Homo sapiens, UniProt Q96LB1); assay: MRGPRX2 selectivity assay, antagonism versus Substance P, IP-One Gq HTRF in CHO-K1/MRGPRX2 cells; conditions: versus 10 μM Substance P
[4] = Plasma protein binding (PPB), M
[5] = read-out: MRGPRX4 antagonist activity, SH-4 cells, versus 30 μM DCA agonist, Table 3
[6] = read-out: MRGPRX2 activity IC50, N1, Table 4

O=c1[nH]c(-c2cccc([C@@H]3Cc4cc(Cl)c(F)cc4O3)c2F)no1 (single isomer, unassigned)
HLM % Re @30 min (Stability in HLM): 80% | LogD (LogP / LogD): 2.2 | LogP (LogP / LogD): 3.2 | PPB (H) % U [1]: 1.55% | RLM % Re @30 min (Stability in RLM): > 99% | MLM % Re @30 min (Stability in MLM): 84% | AUC0-t ([2]; iv 1mpk): 57.467 µg·h/mL | C0 ([2]; iv 1mpk): 7687 ng/mL | CL ([2]; iv 1mpk): 0.24 mL/min/kg | Vd ([2]; iv 1mpk): 0.21 L/kg | t1/2 ([2]; iv 1mpk): 9.95 h | % F ([2]; iv 1mpk, po 10mpk): 97% | AUC0-t ([2]; po 10mpk): 573.114 µg·h/mL | Cmax ([2]; po 10mpk): 47007 ng/mL | t1/2 ([2]; po 10mpk): 9.22 h | IC50 (MRGPRX4; Table 6, target not given): 20 nM | IC50 (MRGPRX4; Table 7, target not given): 20 nM | IC50 (MRGPRX4; [5]): < 100 nM | DLM % Re @30 min (Stability in DLM): > 99% | AUC0-t ([3]; Rat iv): 52300 ng·h/mL | C0 ([3]; Rat iv): 4998 ng/mL | CL ([3]; Rat iv): 0.23 mL/min/kg | Vd ([3]; Rat iv): 0.27 L/kg | t1/2 ([3]; Rat iv): 13.4 h | % F ([3]; Rat po (1mpk)): 85% | AUC0-t ([3]; Rat po (1mpk)): 44308 ng·h/mL | Cmax ([3]; Rat po (1mpk)): 2800 ng/mL | t1/2 ([3]; Rat po (1mpk)): 11.26 h | Solubility pH 7.4 (Solubility pH 7.4): >200 μM | MDCK A-B (MDCK permeability): 18.5 ×10⁻⁶ cm/s | MDCK B-A (MDCK permeability): 16 ×10⁻⁶ cm/s | MDCK ER (MDCK permeability): 0.86 | IC50 (CYP2D6): > 30 µM | IC50 (CYP1A2): > 30 µM | IC50 (CYP2C19): > 30 µM | IC50 (CYP2C9): > 30 µM | IC50 (CYP3A4): 4.6 µM | IC50 (MRGPRX2; read-out: MRGPRX2 IC50): > 3000 nM | IC50 (MRGPRX2; [6]): > 3000 nM | PPB (M) % U [4]: 0.22%

O=c1[nH]c(-c2cccc([C@@H]3Cc4cc(Cl)c(F)cc4O3)n2)no1 (single isomer, unassigned)
HLM % Re @30 min (Stability in HLM): 79% | LogD (LogP / LogD): 1.8 | LogP (LogP / LogD): 3 | PPB (H) % U [1]: 0.81% | RLM % Re @30 min (Stability in RLM): > 99% | MLM % Re @30 min (Stability in MLM): > 99% | AUC0-t ([2]; iv 1mpk): 54.613 µg·h/mL | C0 ([2]; iv 1mpk): 6025 ng/mL | CL ([2]; iv 1mpk): 0.3 mL/min/kg | Vd ([2]; iv 1mpk): 0.12 L/kg | t1/2 ([2]; iv 1mpk): 4.67 h | % F ([2]; iv 1mpk, po 10mpk): 49% | AUC0-t ([2]; po 10mpk): 273.787 µg·h/mL | Cmax ([2]; po 10mpk): 30572 ng/mL | t1/2 ([2]; po 10mpk): 2.9 h | IC50 (MRGPRX4; Table 6, target not given): 33 nM | IC50 (MRGPRX4; Table 7, target not given): 33 nM | IC50 (MRGPRX4; [5]): < 100 nM | DLM % Re @30 min (Stability in DLM): 92% | AUC0-t ([3]; Rat iv): 33602 ng·h/mL | C0 ([3]; Rat iv): 3895 ng/mL | CL ([3]; Rat iv): 0.52 mL/min/kg | Vd ([3]; Rat iv): 0.12 L/kg | t1/2 ([3]; Rat iv): 2.7 h | % F ([3]; Rat po (1mpk)): 80% | AUC0-t ([3]; Rat po (1mpk)): 27011 ng·h/mL | Cmax ([3]; Rat po (1mpk)): 2587 ng/mL | t1/2 ([3]; Rat po (1mpk)): 2.7 h | Solubility pH 7.4 (Solubility pH 7.4): 193 μM | MDCK A-B (MDCK permeability): 28.1 ×10⁻⁶ cm/s | MDCK B-A (MDCK permeability): 36.8 ×10⁻⁶ cm/s | MDCK ER (MDCK permeability): 1.31 | IC50 (CYP2D6): > 30 µM | IC50 (CYP1A2): > 30 µM | IC50 (CYP2C19): > 30 µM | IC50 (CYP2C9): > 30 µM | IC50 (CYP3A4): > 30 µM | IC50 (MRGPRX2; [6]): > 10000 nM | PPB (M) % U [4]: 1.11%
